According to patent US20080234310A1, “Methods and Compositions for Slowing Aging” (priority 2003, published 2008):

Tested on: ion channels associated with glutamate receptors
Assay: Glutamate-induced uptake of 45Ca into rat brain synaptosomes (calcium-blocking properties)
Format: biochemical
Settings: glutamate-induced 45Ca uptake, K(43/21); compound 5 μM; 5 min at 30° C.
Description: Evaluation of the calcium-blocking properties of the compounds was conducted with P2-fraction of synaptosomes, which were isolated from the brain of newborn (8-11 days) rats according to the protocol described in [Bachurin et al. Neuroprotective and cognition enhancing properties of MK-801 flexible analogs. Structure-activity relationships.//Ann. N.Y. Acad. Sci., 2001, v. 939, pp. 219-235]. In this test, the ability of the compounds to inhibit a specific uptake of calcium ions via ion channels associated with glutamate receptors was determined.
Synaptosomes were placed into the incubation buffer A (132 mM NaCl, 5 mM KCl, 5 mM HEPES) and were kept at 0° C. during the entire experiment. Aliquots of synaptosomes (50 μl) were placed in the media A, containing investigated compounds and a preparation of the radiolabeled calcium, ^45Ca. The calcium uptake was stimulated by the introduction into the media of the 20 μl of the 10 mM solution of glutamate. After a 5 min incubation at 30° C. the reaction was interrupted by a filtration through GF/B filters, which were then triple washed with the cold buffer B (145 mM KCl, 10 mM tris, 5 mM trilon B). Then, filters were subjects for the detection of the radiolabeled calcium. The measurement was conducted using a scintillation counter ‘SL-4000 Intertechnic”. […] A specific calcium uptake was calculated using the following equation […]

## Cc1ccc2c(c1)[C@H]1CN(C)CC[C@H]1N2.Cl.Cl (racemic) [Compound 1, cis-(±)-2,8-dimethyl-2,3,4,4a,5,9b-hexahydro-1H-pyrido(4,3-b)indol dihydrochloride]
  % Ca to control: 40.5 ± 1.0%
